Measurements from patent publication US20250276034A1, “RELEASE-CONTROLLED TOPICAL INJECTION COMPOSITION CONTAINING CYCLIC PEPTIDE AND PREPARATION METHOD THEREFOR” (ORIENTBIO INC., priority 2021, published 2025).

Assay: In-vitro release test using rat plasma as release medium (HPLC)
Type: physicochemical
Settings: 37° C.
Description: Delayed drug release depends on the time for PLGA to degrade. When PBS with tween 80 0.2% (pH: 7.4), commonly used in in-vitro drug release testing, is used as a release medium, no drug is released for a minimum of two weeks and a maximum of four weeks. This is different from in-vivo release results.
Accordingly, an in-vitro release test was conducted using rat plasma as a release medium to mimic in-vivo conditions and to establish an optimal in vitro-in vivo correlation (IV-IVC). As the rat plasma, a supernatant obtained by dispensing blood from rats into heparinized tubes, followed by centrifugation in a centrifuge at 3,000 rpm for 10 minutes, was used. […] Then, sampling was performed hourly, followed by analysis by HPLC to measure the quantity of drug released. The HPLC analysis method is as follows.
After a vial to be sampled was vortexed for 30 seconds, each 100 μl sample was dispensed from the vial, followed by centrifugation at 13,000 rpm for 30 minutes. Thereafter, 90 μl of the separated supernatant was dispensed, followed by addition of 270 μl of ACN (Sample A). To the remaining pellets, 360 μl of 75% ACN was added (Sample B). Then, Samples A and B were subjected to sonication for 3 minutes, followed centrifugation at 13,000 rpm for 30 minutes. Theater, 300 μl of the separated supernatant of Samples A and B was dispensed and filtered through a 0.22 μm syringe filter, followed by analysis by HPLC.

For “[D-2-(4-Methylbenzenethio)-Sar^3]Cyclosporine a”, which “drug release profile / initial burst” value is on record?
Its value is “good drug release profile as a sustained-release formulation without an initial burst”.

For [N-Methyl-D-Abu^3]Cyclosporine A, which “drug release profile / initial burst” value is on record?
Its value is “good drug release profile as a sustained-release formulation without an initial burst”.

Which “drug release profile / initial burst” value does the source give for “[N-Methyl-D-Ala^3]Cyclosporine A [[D-MeAla^3]cyclosporine A]” here?
Its value is “good drug release profile as a sustained-release formulation without an initial burst”.

With “[N-Methyl-D-Norval^3]Cyclosporine A [[N-methyl-D-Nva^3]cyclosporine A]” as the substance, how does the “drug release profile / initial burst” value read?
The value was “good drug release profile as a sustained-release formulation without an initial burst”.
